ChEMBL document CHEMBL4118144, “Design, Synthesis, and Testing of Potent, Selective Hepsin Inhibitors via Application of an Automated Closed-Loop Optimization Platform” (J Med Chem, 2018)

Key:
Homo sapiens [1] = organism: Homo sapiens; test: Selectivity ratio of IC50 for recombinant C-terminal His10-tagged human uPA (M1 to L431 residues) to IC50 for recombinant C-terminal His10-tagged human Hepsin (R45 to […] residues) D161E/ R162K double mutant by automated fluorescence assay
Homo sapiens [2] = organism: Homo sapiens; test: Selectivity ratio of IC50 for recombinant C-terminal His10-tagged human uPA (M1 to L431 residues) to IC50 for recombinant C-terminal His10-tagged human Hepsin (R45 to […] residues) D161E/ R162K double mutant by manual fluorescence assay

Compound: Cc1ccc(S(=O)(=O)N[C@@H](C(=O)Nc2ccc(C(=N)N)cc2)C2CCCCC2)cc1
Ratio IC50 (Homo sapiens [1]): 133
Ratio IC50 (Homo sapiens [2]): > 142

Ratio IC50 (Homo sapiens [2]): 240
Compound: Cc1ccc(S(=O)(=O)NC(C(=O)Nc2ccc(C(=N)N)cc2)c2ccccc2)cc1 (stereo unspecified)

Compound: N=C(N)c1ccc(NC(=O)[C@H](NS(=O)(=O)c2ccc(F)cc2)C2CCCCC2)cc1
Ratio IC50 (Homo sapiens [1]): > 155
Ratio IC50 (Homo sapiens [2]): 1450

Compound: Cc1ccc(S(=O)(=O)N[C@@H](C(=O)Nc2ccc(C(=N)N)cc2)c2ccccc2)cc1
Ratio IC50 (Homo sapiens [2]): 6360

One block for each compound: values may come before it.
